This is a selection; strong and weak results do not stand in their true shares. Inconclusive results are not listed. Calls of active or inactive are those of the source. Calls follow the shape of the dose curve; as a rule, active = well fitted cell-killing curve with a large enough effect; inconclusive = small, poorly fitted or top-dose-only effect; inactive = no such curve, though single readings can be large or run the other way.
% is scaled to controls: 0 for no effect and ±100 for the full control effect; potency is read from the fitted curve at half-maximal effect.

The nature of the test: qHTS Screen for Compounds that Selectively Target Cancer Cells with p53 Mutations: Cytotoxicity of p53ts Cells at the Nonpermissive Temperature. Also: nearly all actives have a fitted effect of over 55% in size. The note with it: H1299-p53A138V viability at 39C, ATP luminescence, 24 h; series mostly up to 9.22 µM; activity change, negative = cell killing: at the top concentration.
For `COc1ccc2cc1Oc1ccc(cc1)CC1c3cc(c(OC)cc3CCN1C)Oc1c(OC)c(OC)cc3c1C(C2)N(C)CC3` (stereo not drawn), the “activity change, negative = cell killing” value is inactive: -25.4% [at 46.1 µM]. In the case of `COc1ccc2cc1Oc1ccc(cc1)C[C@H]1c3cc(c(OC)cc3CCN1C)Oc1c(OC)c(OC)cc3c1[C@@H](C2)N(C)CC3`, the Potency entry is “inactive”.

With `COc1ccc2cc1Oc1ccc(cc1)C[C@H]1c3cc(c(OC)cc3CCN1C)Oc1c(OC)c(OC)cc3c1[C@H](C2)N(C)CC3`, the Potency is active: 31.6 µM.

For the origin of these results see PubChem BioAssay AID902 (National Center for Advancing Translational Sciences (NCATS), 2007).
